Paper PMC6730887 (2019)

Molecular target: T1, GST-Glmn (Glomulin) (UniProt Q92990 1-594)
T1 chain: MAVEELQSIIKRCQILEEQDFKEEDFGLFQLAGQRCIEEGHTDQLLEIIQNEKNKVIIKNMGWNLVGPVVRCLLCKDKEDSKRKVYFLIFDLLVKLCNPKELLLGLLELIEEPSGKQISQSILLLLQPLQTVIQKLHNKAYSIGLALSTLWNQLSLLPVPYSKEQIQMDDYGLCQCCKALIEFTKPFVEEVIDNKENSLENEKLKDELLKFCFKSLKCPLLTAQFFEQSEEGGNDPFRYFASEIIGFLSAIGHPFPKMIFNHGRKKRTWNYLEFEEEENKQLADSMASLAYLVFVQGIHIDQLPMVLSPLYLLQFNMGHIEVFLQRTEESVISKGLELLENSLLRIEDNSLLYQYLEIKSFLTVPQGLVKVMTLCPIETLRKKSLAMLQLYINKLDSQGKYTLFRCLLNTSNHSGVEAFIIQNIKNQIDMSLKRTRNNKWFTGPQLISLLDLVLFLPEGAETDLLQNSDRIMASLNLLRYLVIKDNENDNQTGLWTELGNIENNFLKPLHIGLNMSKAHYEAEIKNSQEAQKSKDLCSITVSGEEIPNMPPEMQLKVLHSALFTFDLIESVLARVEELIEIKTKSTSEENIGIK
Assay: FRET

B1: His-FKBP12.6 (natural protein)
chain: MGVEIETISPGDGRTFPKKGQTCVVHYTGMLQNGKKFDSSRDRNKPFKFRIGKQEVIKGFEEGAAQMSLGQRAKLTCTPDVAYGATGHPGVIPPNATLIFDVELLNLE
With B1 as the binder, how does the IC50 read?
The IC50 was 63 nM.
